Data as given in patent publication US20050032187A1, “Novel peptide-forming enzyme, microbe producing the enzyme and method for producing peptide using them” (Ajinomoto Co., Inc., priority 2003, published 2005).
Residues, ends and D or L forms follow the SMILES beside them.

Experiments:
[1] = tested on: peptide-producing enzyme (Mono S fraction) of Empedobacter brevis strain FERM BP-8113; experiment: Enzyme substrate specificity (peptide production); format: biochemical; design: key to Formed peptide (mM): +: those peptides for which production was confirmed but which were unable to be quantified due to the absence of a standard; a trace amount; settings: pH 9.0, 25° C., 3 hours
[2] = tested on: peptide-producing enzyme (Mono S fraction) of Empedobacter brevis strain FERM BP-8113; experiment: Production of L-alanyl-L-glutamine from L-alanine methyl ester and L-glutamine with enzyme fraction; format: biochemical; settings: 3 μl enzyme fraction, 100 mM L-alanine methyl ester hydrochloride, 200 mM L-glutamine, pH 9.0, 18° C., enzyme-added lot
[3] = 100 mM L-alanine methyl ester hydrochloride, L-amino acid 150 mM
[4] = L-amino acid methyl ester hydrochloride 100 mM, L-amino acid 150 mM
[5] = L-amino acid methyl ester hydrochloride 100 mM, 150 mM L-glutamine, 0.1% Tween-80 with L-Trp-OMe and L-Tyr-OMe

Compound	Formed peptide (mM) [1, 5]	other results
C[C@H](N)C(=O)N[C@@H](CS)C(=O)O [L-Ala-L-CySH] (H-Ala-Cys-OH)	–	Formed peptide (mM) [1, 3]: +
C[C@H](N)C(=O)N1CCC[C@H]1C(=O)O [L-Ala-L-Pro] (H-Ala-Pro-OH)	–	Formed peptide (mM) [1, 3]: tr
CSCC[C@H](NC(=O)[C@@H](N)CCCN=C(N)N)C(=O)O [L-Arg-L-Met] (H-Arg-Met-OH)	–	Formed peptide [1, 4]: 0.7 mM
NC(=O)CC[C@H](NC(=O)[C@@H](N)CC(N)=O)C(=O)O [L-Asn-L-Gln] (H-Asn-Gln-OH)	+	–
NC(=O)CC[C@H](NC(=O)[C@@H](N)CS)C(=O)O [L-CySH-L-Gln] (H-Cys-Gln-OH)	+	–
NC(=O)CC[C@H](NC(=O)[C@@H](N)CCC(N)=O)C(=O)O [L-Gln-L-Gln] (H-Gln-Gln-OH)	–	Formed peptide [1, 5]: 0.3 mM
NC(=O)CC[C@H](NC(=O)[C@@H](N)Cc1cnc[nH]1)C(=O)O [L-His-L-Gln] (H-His-Gln-OH)	+	–
CC[C@H](C)[C@H](N)C(=O)N[C@@H](CCSC)C(=O)O [L-Ile-L-Met] (H-Ile-Met-OH)	–	Formed peptide [1, 4]: 10.0 mM
CC(C)C[C@H](N)C(=O)N[C@@H](CCC(N)=O)C(=O)O [L-Leu-L-Gln] (H-Leu-Gln-OH)	+	–
NCCCC[C@H](N)C(=O)N[C@@H](CCC(N)=O)C(=O)O [L-Lys-L-Gln] (H-Lys-Gln-OH)	+	–
NC(=O)CC[C@H](NC(=O)[C@@H](N)Cc1ccccc1)C(=O)O [L-Phe-L-Gln]	–	Formed peptide [1, 5]: 0.9 mM
CC(C)[C@H](NC(=O)[C@@H](N)[C@@H](C)O)C(=O)O [L-Thr-L-Val] (H-Thr-Val-OH)	–	Formed peptide [1, 4]: 0.7 mM
NC(=O)CCC(NC(=O)C(N)Cc1c[nH]c2ccccc12)C(=O)O [L-Trp-L-Gln] (H-Trp-Gln-OH; configuration not given here)	+	–
NC(=O)CC[C@H](NC(=O)[C@@H](N)CC(=O)O)C(=O)O [α-L-Asp-L-Gln] (H-Asp-Gln-OH)	tr	–
NC(=O)CC[C@H](NC(=O)[C@@H](N)CCC(=O)O)C(=O)O [α-L-Glu-L-Gln] (H-Glu-Gln-OH)	+	–
NC(=O)CC[C@H](NC(=O)C[C@H](N)C(=O)O)C(=O)O [β-L-Asp-L-Gln]	tr	–
NC(=O)CC[C@H](NC(=O)CC[C@H](N)C(=O)O)C(=O)O [γ-L-Glu-L-Gln]	+	–
L-Ala-L-Ala-L-Gln	–	concentration of by-product L-Ala-L-Ala-L-Gln [2]: 1.3 mM
